Experimental data as given in patent US8318898B2, “Synthetic peptides for use as inhibitors of neurotransmitter secretion and as inducers of cellular relaxation” (Universite de Lausanne, priority 2005, dated 2012).

Sequences of proteins named here, by UniProt entry; tags and fusion partners are left off. Residues count along the entry.
UniProt P09958, 108-794: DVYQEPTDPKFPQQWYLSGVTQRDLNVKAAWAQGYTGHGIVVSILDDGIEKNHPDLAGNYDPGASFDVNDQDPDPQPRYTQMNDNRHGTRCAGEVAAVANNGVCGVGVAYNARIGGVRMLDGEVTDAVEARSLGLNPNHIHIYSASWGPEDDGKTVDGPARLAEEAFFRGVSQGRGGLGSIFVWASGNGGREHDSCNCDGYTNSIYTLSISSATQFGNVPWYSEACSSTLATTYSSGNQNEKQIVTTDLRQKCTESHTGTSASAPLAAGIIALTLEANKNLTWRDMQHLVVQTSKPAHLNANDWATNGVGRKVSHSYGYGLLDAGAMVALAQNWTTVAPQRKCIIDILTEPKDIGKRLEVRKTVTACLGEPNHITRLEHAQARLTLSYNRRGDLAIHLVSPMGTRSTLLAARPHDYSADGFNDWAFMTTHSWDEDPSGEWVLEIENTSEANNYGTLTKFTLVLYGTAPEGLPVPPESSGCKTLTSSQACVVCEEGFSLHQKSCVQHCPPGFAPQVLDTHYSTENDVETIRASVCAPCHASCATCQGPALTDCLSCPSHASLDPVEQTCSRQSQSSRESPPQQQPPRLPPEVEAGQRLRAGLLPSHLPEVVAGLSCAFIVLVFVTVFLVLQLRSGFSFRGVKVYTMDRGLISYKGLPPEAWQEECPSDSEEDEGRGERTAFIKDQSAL
UniProt P23377, 108-793: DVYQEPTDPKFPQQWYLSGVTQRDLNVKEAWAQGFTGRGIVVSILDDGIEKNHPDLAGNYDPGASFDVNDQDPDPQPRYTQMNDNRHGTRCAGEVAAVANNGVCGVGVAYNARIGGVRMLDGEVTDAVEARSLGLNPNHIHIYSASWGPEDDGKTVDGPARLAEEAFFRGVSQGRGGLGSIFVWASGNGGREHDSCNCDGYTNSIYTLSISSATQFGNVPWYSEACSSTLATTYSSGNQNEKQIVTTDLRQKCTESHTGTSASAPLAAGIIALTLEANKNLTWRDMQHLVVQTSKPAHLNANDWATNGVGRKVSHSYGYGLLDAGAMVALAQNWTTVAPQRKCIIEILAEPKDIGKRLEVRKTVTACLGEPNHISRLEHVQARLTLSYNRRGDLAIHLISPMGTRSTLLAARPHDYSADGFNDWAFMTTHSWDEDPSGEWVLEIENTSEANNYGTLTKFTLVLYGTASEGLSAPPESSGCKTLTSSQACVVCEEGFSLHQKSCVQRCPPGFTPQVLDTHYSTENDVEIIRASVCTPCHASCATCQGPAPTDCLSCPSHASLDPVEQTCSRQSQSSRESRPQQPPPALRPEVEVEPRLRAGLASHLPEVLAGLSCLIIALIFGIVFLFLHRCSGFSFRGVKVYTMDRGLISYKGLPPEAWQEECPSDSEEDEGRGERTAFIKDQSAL

How the values were obtained:
PC12-ES cells = experiment: Evoked neurotransmitter secretion by undifferentiated PC12-ES cells, furin inhibitor and arginine rich peptides; format: cell-based, rat; conditions: potassium 80 mM, 15 minutes
Recombinant furin = Recombinant furin (Homo sapiens, UniProt P09958); experiment: biochemical; format: biochemical
Protocol: To determine if the peptides described herein have an effect on the activity of PC enzymes which are involved in a condition or disorder such as fibrosis, the effect of the peptides on furin activity in vitro was measured as percent inhibition of cleavage of the furin substrate fluorogenic t-butyloxycarbonyl (Boc)-RVRR-7-amino-4-methylcoumarin (MCA).
All in vitro enzyme studies were performed at room temperature in a final volume of 50-100 μl in 96-well flat-bottom black plates. The buffer consisted of 100 mM HEPES, 1 mM CaCl2, 0.5% TritonX-100, and 1 mM 2-β-mercaptoethanol pH 7.5. Assays were performed using Boc-RVRR-MCA as fluorogenic substrate at 100 μM. Recombinant furin (0.8 U of activity) was incubated with Boc-RVRR-MCA in the presence or absence of varying concentrations of synthetic peptides D-9Rac/am (SEQ ID NO. 15), L-Bel1 (SEQ ID NO. 3), or L-9K (SEQ ID NO. 6). One unit of activity is defined as the amount of furin that can release 1 μmol of MCA from the fluorogenic Boc-RVRR-MCA per min at 30° C. The release of highly fluorescent 7-amino 4-methyl coumarin (MCA) from the Boc-RVRR-MCA was monitored by a spectrofluorometer instrument at excitation and emission wavelengths of 370 nm/460 nm. […]

furin = target: T1, furin (Rattus norvegicus, UniProt P23377); format: biochemical
T1 construct: Furin activity was constitutively detected in PC12-ES cells; endogenous in cells; host or cells: PC12-ES cells (lysate)
Protocol: To monitor the intracellular furin activity, 80% confluent PC12-ES cells were washed twice with ice-cold phosphate-buffered saline (PBS1×) by centrifugation at 800×g for 5 minutes at 4° C., resuspended in 100 mM HEPES, 1 mM CaCl2, 0.5% TritonX-100, and 1 mM 2-β-mercaptoethanol, pH 7.5, sonicated 6 times at 4° C. for 10 seconds, and then centrifuged at 8000×g for 20 minutes at 4° C. The protein concentration in the samples was determined using a bicinchonic acid protein assay kit (Pierce Chemical Co.).
Intracellular furin activity was measured with a furin-specific fluorogenic substrate, t-butyloxycarbonyl (Boc)-[…]-7-amino-4-methylcoumarin (MCA). Briefly, the cell lysate (20 μg-60 μg of protein) prepared as described above was incubated with 100 μM Boc-RVRR-MCA in a 96-well flat-bottom black plate for at least 6 hours at room temperature and fluorescence measured by excitation at 365 nm and emission at 450 nm.

PC-12 cells = experiment: Actin cytoskeleton organization, phalloidin-TRITC staining; format: cell-based, rat
Protocol: Slides with PC-12 cells were prepared as stated previously for localization studies. Briefly, cells were exposed to FITC-labeled or unlabeled peptides, at various concentrations, for 30 minutes, fixed and then permeabilized. Subsequently, F-actin was fluorescently labeled with phalloidin-Tetramethyl Rhodamine Iso-Thiocyanate (TRITC) (Sigma Aldrich) conjugate, diluted on saponin buffer (0.25 μg/ml), and nuclear staining with DAPI dihydrochloride (Sigma Aldrich) (0.02 μg/ml), at room temperature for maximum 30 minutes. Finally, slides were mounted and sealed, and stored at 4° C. protected from light. The effect of the peptides to actin polymerization was analyzed by confocal microscopy, as described before.

rat lung fibroblast (LF) = experiment: Cell contraction/relaxation on wrinkling silicone substrate, live videomicroscopy; format: cell-based; conditions: 10 μM and 50 μM
Protocol: To study the effect(s) of the peptides on muscle cells, which associate with neurosecretory cells at neuromuscular junctions, peptides were cultured with rat lung fibroblast (LF) grown over wrinkling substrate (silicon) which can mimic the effects of contraction. These cells have a myofibroblastic phenotype, e.g., production of TGF-β, which make them suitable for cellular contraction/relaxation studies.
Wrinkling silicone substrates were prepared as essentially described previously (Harris, et al., Science. 208:177-179, 1980; Hinz, et al., Mol Biol Cell. 12:2730-41, 2001). Briefly, 50 μl of silicone (poly dimethyl siloxane; 30.000 centistokes, Dow Corning, Midland, Mich.) were deposited onto a 35 mm round glass coverslip at the bottom of a self-made observation chamber, which was centrifuged at 1.000 rpm for 2 minutes to spread the viscous fluid. The silicone surface was then crosslinked by passing it through a Bunsen flame; a flaming time of 1 second produced a surface stiffness that restricted wrinkle formation to fibroblasts with high contractile force (Hinz et al., supra). The polymerized silicone surface was finally coated with 10 μg/ml collagen type I (Sigma) for 2 hours at 37° C. Lung fibroblast cells were seeded at a density of 3.5×10^3 cells/cm^2 and cultured for 1-2 days before the experiment. […]

[1] = system: smooth muscle cell line (A7r5); experiment: Cell contraction/relaxation on silicon sheet, smooth muscle cells; format: cell-based
Protocol: Lung biopsy was obtained from a Sprague Dawley rat, divided in small tissue slices, placed in culture dishes, and maintained then in organ culture in Dulbecco's modified Eagle's medium (GibcoBRL, Life Technologie) containing 10% decomplemented fetal bovine serum (FBS) supplemented with 100 U/ml penicillin, 100 μg/ml streptomycin, 4 mM I-glutamine, at 37° C., in 5% CO2. Cells were maintained during 2-3 weeks (2-8 passages), replacing medium frequently. At confluence, cells were detached from the culture dish with 0.125% trypsin-EDTA mixture (Sigma) for 10 minutes at 37° C., resuspended in complete medium, and seeded over silicon-coated tissue culture dishes at 3.5×10^3 cells/cm^2. One to two days after, cells were treated with the appropriate peptide at 10 or 50 μM, and peptide-induced cell contraction/relaxation effect followed for 1-3 hours by live videomicroscopy. A smooth muscle cell line (A7r5) kept in similar conditions was also used to follow the peptide-induced effects on these cells grown over silicon sheet.
Live videomicroscopy was performed under controlled temperature and CO2 conditions using a Zeiss Axiovert 200M (Zeiss, Oberkochem, Germany), equipped with a spinning disk Nipkow confocal head (Yokogawa CSU10), Photometrics CoolSNAP-HQ CCD camera and Metamorph 6.0 acquisition software (Visitron Systems, Puchheim, Germany). […]

lung fibroblasts = experiment: Stressed collagen lattice contraction assay; format: cell-based, rat; conditions: peptide 60 minutes before gel release; compared to control gels and L-9K treated gels; preliminary

Compound: CC(=O)NCC(=O)N[C@H](Cc1ccc(O)cc1)C(=O)NCC(=O)N[C@H](CCCNC(=N)N)C(=O)N[C@H](CCCNC(=N)N)C(=O)N[C@H](CCCNC(=N)N)C(=O)N[C@H](CCCNC(=N)N)C(=O)N[C@H](CCCNC(=N)N)C(=O)N[C@H](CCCNC(=N)N)C(=O)N[C@H](CCCNC(=N)N)C(=O)N[C@H](CCCNC(=N)N)C(=O)N[C@H](CCCNC(=N)N)C(=O)NCC(N)=O [D-9Rac/am]
- inhibition of evoked neurotransmitter secretion by PC12-ES cells (PC12-ES cells; 10 μM): 52.4%
- inhibition of evoked neurotransmitter secretion by PC12-ES cells (PC12-ES cells; 100 μM): 76.2%
- concentration for complete blockade of cleavage of Boc-RVRR-MCA by furin (Recombinant furin): 0.7 µM
- inhibition of in vitro furin activity (in words) (Recombinant furin; Boc-RVRR-MCA 100 μM as substrate): inhibited to completion
- Ki (Recombinant furin; furin, Boc-RVRR-MCA substrate, read-out: Ki(app)): 170 nM
- concentration needed to block the intracellular furin activity measured in cell lysate (furin): 100 µM
- effect on actin content and organization at higher concentration (PC-12 cells; 100 μM): almost lost
- effect on actin content and organization (PC-12 cells; 2 to 10 μM, 30 minutes, labeled or unlabeled): decreased actin content and organization
- relaxing effect on lung myofibroblasts on silicon substrate (rat lung fibroblast (LF)): slow but constant loss of silicon substrate wrinkles and cell detachment
- relaxing effect on smooth muscle cells [1]: same effect
- myofibroblast-mediated collagen gel contraction (lung fibroblasts): decrease
